## AlphaSeq binding of Ab-14 light chain variants to a spike HR2 peptide

Source: Li et al. 2023 (doi:10.1038/s41467-023-39022-2), MIT Lincoln Laboratory and A-Alpha Bio; data file from the FLAb repository.

Target peptide (SARS-CoV-2 spike, HR2 region): PDVDLGDISGINAS

Ab-14 is the parent antibody, in scFv form: VH, then the linker GGGGSGGGGSGGGGS, then VL. The heavy chain is unchanged in all variants.
VH: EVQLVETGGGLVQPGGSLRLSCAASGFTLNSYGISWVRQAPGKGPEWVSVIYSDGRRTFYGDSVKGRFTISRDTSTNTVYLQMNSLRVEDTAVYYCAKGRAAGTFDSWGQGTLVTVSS
VL: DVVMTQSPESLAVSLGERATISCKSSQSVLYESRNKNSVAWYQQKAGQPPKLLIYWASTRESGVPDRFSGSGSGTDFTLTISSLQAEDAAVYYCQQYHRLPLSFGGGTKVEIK

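Designed CDR sequences, proposed from the first random library and measured here. Group labels follow the data file (Ctrl: baseline library sampled from a position-specific scoring matrix, with some repeated check sequences; En: ensemble of fine-tuned language models; GP: Gaussian process model; GPLM: also part of the Gaussian process libraries; HC: hill climbing; Gen: genetic algorithm; Gibbs: Gibbs sampling; a sequence that several methods proposed may carry one label only). AlphaSeq pools MATa yeast showing the antibodies with MATalpha yeast showing the peptide. Pairs that bind mate more often; barcode pairs of the diploids are counted by sequencing. Read counts were normalised to the haploid input and turned into Kd by a linear fit to BCL2-family pairs of known affinity, for each replicate. There are six technical replicates.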

Each variant is given by its three light chain CDRs, as the data file delimits them; those of the parent are KSSQSVLYESRNKNSVA, WASTRES, QQYHRLPLS. The read-out is the apparent dissociation constant on a log10 scale (nM): the lower, the stronger. Averages over replicates are reported, and they cover detected replicates only. An entry "nd" has no value in the source: the pair was not observed among the diploids in any replicate. This suggests poor binding but is not conclusive. As a blank, each scFv also met three strains without target: over all light chain designs, 4% of these pairings were detected, typically at 2.64 and seldom below 1.59. Of ten entries with the parent sequence, four were seen in most replicates (averages 0.34 to 2.37), three in one and three in none, so single entries are noisy. The range of this assay differs from that of the first round, and the authors advise against merging the two. The authors averaged sequences with at least three values out of six and counted those with two or fewer as poor binders.

Variant KLSQATRMESRNKASVA, ENSTREE, QQYFRLPLS [En_HC] showed 0.03 (6 of 6 replicates).
Variant KSQQSQLYESRNFNSVA, DASTRED, QQYHRLPLS [GP_HC] showed -0.01 (6 of 6 replicates).
Variant KSVQSVLYESRNKNSVA, WASTRES, QQYHRLPAS [Ctrl] showed 2.60 (1 of 6 replicates).
Variant KVRGSTLYESRNKNSVA, WASTRES, QQYHRLPLS [GP_HC] showed 0.75 (6 of 6 replicates).
Variant KSSQSDQYESRMKNSVA, WASTREF, QQYHRLPLS [Ctrl] showed 1.40 (2 of 6 replicates).
Variant KSSQSVLYESVNKNSVA, WASTREE, YQYHRLPLS [Ctrl] showed nd (0 of 6 replicates).
Variant ILSDSVLGLSRNKNSVA, DNSTRES, QQYDRLPLS [En_HC] showed 2.92 (2 of 6 replicates).
Variant KVSEFMRGLTQRKDSIA, DNVTRNN, QQYDRLPLS [En_Gen] showed nd (0 of 6 replicates).
Variant KLPQSTLYESRNKNSVA, NASTRMS, QQYHRLPLS [GP_Gen] showed 0.00 (6 of 6 replicates).
Variant KWSFLQGGESRNKNSVA, DASTRES, QQYHRLPLS [GP_Gibbs] showed -0.26 (6 of 6 replicates).
Variant KVSFSELLESRNKNSVA, EASTRES, QQYHRLPLS [GP_HC] showed -0.24 (6 of 6 replicates).
Variant NLKEMEGTNQTKHGNIA, SVDQTMT, QQYFRLPLA [En_Gibbs] showed 1.16 (6 of 6 replicates).
Variant HLSQSVLYEERNKNSVA, NASTRES, QQYHRLPLS [GP_Gen] showed -0.05 (6 of 6 replicates).
Variant TLTQVQGMESHNHDNVA, DLSTRGS, QQYHRLPLS [En_HC] showed -0.19 (6 of 6 replicates).
Variant KVSQSVLYESRNKNSVA, NASTREE, QQYHRLPLS [GP_Gen] showed -0.34 (6 of 6 replicates).
Variant KMSPSELYQDRNFNAVA, QASQRES, QQYHRLPLS [GP_Gibbs] showed 1.01 (6 of 6 replicates).
Variant KLSQSVLMEHRNKNSVA, DASLRES, QQYHRLPLS [GP_HC] showed 0.23 (6 of 6 replicates).
Variant HISYSMGHLSKNKNSVA, NQQTRES, QQYHRLPLS [En_HC] showed 1.02 (6 of 6 replicates).
Variant KIGQQVTYESTHKNAIA, QMTTREE, QQYHRLPLS [En_HC] showed 0.28 (6 of 6 replicates).
Variant KSSQSVHYESRNKNSVA, WASTRES, QQPHRLPLM [Ctrl] showed 1.89 (2 of 6 replicates).
Variant HLGGMMTWESKAKNSVA, QSNTRAE, QQYHRLPLS [En_HC] showed -0.04 (6 of 6 replicates).
Variant KSSQSVLEESRMKNSVA, AASTRES, NQYHRLPNS [Ctrl] showed 1.50 (1 of 6 replicates).

The remaining entries, values ahead:

0.81 (6 of 6 replicates): KSSQSVLYEMRNVDSVA, DASTHAS, QQYHRLPLS [Ctrl].
1.26 (6 of 6 replicates): NLSYHQFEPTGMVNSVA, QTSLRAH, QQYAHLPLC [En_Gibbs].
0.31 (6 of 6 replicates): KLRQSTKYESRNQNSVA, HASTRES, QQYHRLPLS [GP_HC].
0.29 (6 of 6 replicates): KFSQSVLYESTTKNSVA, NASTRES, QQYHRLPLS [GPLM_HC].
0.61 (6 of 6 replicates): KITGMWTFESRNKNSIA, EVSTRPS, QSYHRLPLS [En_HC].
nd (0 of 6 replicates): KLYEMLAVTMSHIRNVA, DNSTREA, QQYNRLPLS [En_Gen].
-0.36 (6 of 6 replicates): KFSKSVLFESRNKNSVA, NASTRES, QQYHRLPLS [GP_HC].
-0.36 (6 of 6 replicates): KLSEQALYESRNKNSVA, QASTREV, QQYHRLPLS [GP_Gibbs].
0.82 (6 of 6 replicates): KSGQSVLYESRNKNSVA, GASTRES, QQYHRLPLI [GP_HC].
0.34 (6 of 6 replicates): KLRQSVEYGSRNKNSVA, SASTRES, QQYHRLPLS [GP_Gibbs].
0.71 (6 of 6 replicates): TISGVMMQMSHSKNNVA, EVSMRLD, QQYVRLPLE [En_Gen].
-0.06 (6 of 6 replicates): KSLQSQEYESRNKNSVA, HASTRLD, QQYHRLPLS [GP_HC].
-0.10 (6 of 6 replicates): KFSQSWLYEDRVKNSVA, GAQTRES, QQYHRLPLS [GP_HC].
0.13 (6 of 6 replicates): KISQMVNYESTHVNAVA, QMSTREE, QQYFRLPLS [En_HC].
-0.41 (6 of 6 replicates): KQSQSDLYESRNKNSVA, DASTRES, QQYHRLPLS [GP_HC].
1.21 (6 of 6 replicates): KLRQVTGYELYNKNSVA, QTSTRAS, QDYHRLPLS [En_HC].
-0.08 (6 of 6 replicates): KSSQSDLYESRNVNSVA, GASTRES, QQYHRLPLS [GP_HC].
-0.10 (6 of 6 replicates): KFYPSYLYESRNKNSVA, QASTRES, QQYHRLPLS [GP_HC].
0.75 (6 of 6 replicates): KLDQSVMLESRNKNSVA, EASTRMS, QDYHRLPLS [GP_Gibbs].
0.78 (6 of 6 replicates): KSSQSMLYESRNKNSVA, NAQTRES, QQYHRLPLS [Ctrl].
1.72 (6 of 6 replicates): KLQMSELPESRNKNSVA, WASLREM, QQYHRLPLS [GP_Gibbs].
0.43 (6 of 6 replicates): HITYGMQVAGRHSSSIA, QAEERAK, QQYDRLPLA [En_Gen].
0.44 (6 of 6 replicates): KIGGVTNGISRSTNSVA, EQSTRED, QQYNRLPLS [En_HC].

The 7 strongest on average among those seen in every replicate, once more:

CDR-L1	CDR-L2	CDR-L3	group	mean, log10 nM	seen in
KQSQSDLYESRNKNSVA	DASTRES	QQYHRLPLS	GP_HC	-0.41	6 of 6
KFSKSVLFESRNKNSVA	NASTRES	QQYHRLPLS	GP_HC	-0.36	6 of 6
KLSEQALYESRNKNSVA	QASTREV	QQYHRLPLS	GP_Gibbs	-0.36	6 of 6
KVSQSVLYESRNKNSVA	NASTREE	QQYHRLPLS	GP_Gen	-0.34	6 of 6
KWSFLQGGESRNKNSVA	DASTRES	QQYHRLPLS	GP_Gibbs	-0.26	6 of 6
KVSFSELLESRNKNSVA	EASTRES	QQYHRLPLS	GP_HC	-0.24	6 of 6
TLTQVQGMESHNHDNVA	DLSTRGS	QQYHRLPLS	En_HC	-0.19	6 of 6